The chains behind the UniProt entries cited, without tags or fusion partners.
UniProt P48736, whole entry, species assumed: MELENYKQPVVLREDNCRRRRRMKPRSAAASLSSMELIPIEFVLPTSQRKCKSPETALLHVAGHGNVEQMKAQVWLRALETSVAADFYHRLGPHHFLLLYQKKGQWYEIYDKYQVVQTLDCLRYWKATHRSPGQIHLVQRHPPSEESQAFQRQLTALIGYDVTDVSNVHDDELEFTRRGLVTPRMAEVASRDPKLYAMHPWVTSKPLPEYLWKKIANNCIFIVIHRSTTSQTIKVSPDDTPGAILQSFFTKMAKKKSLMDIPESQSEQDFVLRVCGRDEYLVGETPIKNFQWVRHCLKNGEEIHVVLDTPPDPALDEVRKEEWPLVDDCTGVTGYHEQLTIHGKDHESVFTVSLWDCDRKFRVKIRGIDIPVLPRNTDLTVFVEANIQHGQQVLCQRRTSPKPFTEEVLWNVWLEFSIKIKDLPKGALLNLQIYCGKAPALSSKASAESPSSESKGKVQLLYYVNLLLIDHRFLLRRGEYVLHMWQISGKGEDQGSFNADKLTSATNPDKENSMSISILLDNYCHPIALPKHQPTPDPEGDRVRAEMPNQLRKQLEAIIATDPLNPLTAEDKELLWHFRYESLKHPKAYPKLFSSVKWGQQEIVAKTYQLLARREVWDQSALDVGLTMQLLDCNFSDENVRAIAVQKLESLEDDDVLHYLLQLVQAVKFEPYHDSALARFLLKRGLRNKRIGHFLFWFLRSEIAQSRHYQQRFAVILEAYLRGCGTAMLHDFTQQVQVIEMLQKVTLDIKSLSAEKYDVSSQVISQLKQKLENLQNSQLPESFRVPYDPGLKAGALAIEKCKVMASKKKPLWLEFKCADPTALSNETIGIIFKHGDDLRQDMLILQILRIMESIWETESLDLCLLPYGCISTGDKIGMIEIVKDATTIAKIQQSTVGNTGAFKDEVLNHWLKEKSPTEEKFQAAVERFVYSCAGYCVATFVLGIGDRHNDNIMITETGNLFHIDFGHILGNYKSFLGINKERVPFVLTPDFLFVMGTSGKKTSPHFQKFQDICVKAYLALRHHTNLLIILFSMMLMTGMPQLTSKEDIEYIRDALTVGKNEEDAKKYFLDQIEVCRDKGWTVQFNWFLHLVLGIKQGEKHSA

According to article PMC9027920, “Development of New Thiophene-Containing Triaryl Pyrazoline Derivatives as PI3Kγ Inhibitors” (Molecules, 2022):

Target: T1, PI3Kγ (Homo sapiens, UniProt P48736)
T1 construct: purchased Perkin–Elmer
Assay: competitive fluorescence polarization kinase activity assay, PI3Kγ
Assay type: biochemical
Conditions: fluorescence polarization kinase kit
Source text: Initially, we directly tested the inhibition potency of the synthesized compounds on PI3K by using competitive fluorescence polarization kinase kits, as mentioned in previous investigations. According to the significance and research maturity of the isoforms as referenced, the PI3Kα and PI3Kγ isoforms were preliminarily included here. The origin ligand of the protein crystal complex LY294002 was selected as the positive control. General speaking, the majority of the tested compounds indicated potent PI3K inhibitory potency, which set the basis for discussing the structure–activity relationship (SAR).
The competitive fluorescence polarization kinase activity assay was used to test the inhibition potency on PI3K, as mentioned in previous investigations. In general, following the instruction of the Kit (Perkin–Elmer, Waltham, MA, USA), the 10 μL scale of PI3K activity reaction was conducted with the substrate diC8-PI(4,5)P2 in a solution containing 2.5 mM MgCl2, 5 mM HEPES, […] and 10 mM DTT at pH 7.0. Into the 10 μL reaction wells with 50 ng enzyme and […], different concentrations of the tested compounds were added, respectively. […] With appropriate filters, the polarization values of the corresponding dye were recorded to calculate the enzymatic activity of PI3K in this reacting procedure. […]

IC50: 777 ± 71 nM
Structure (SMILES): O=c1cc(N2CCOCC2)oc2c(-c3ccccc3)cccc12 [LY294002, reference compound]
